Measured values: ChEMBL document CHEMBL1138472, “Halogen bonding--a novel interaction for rational drug design?” (J Med Chem, 2009)

Biological target: Cyclin-dependent kinase 2 (Homo sapiens, UniProt P24941)

An IC50 of 1 µM was found for c1ccc(Nc2nc(OCC3CCCCC3)c3nc[nH]c3n2)cc1 in this work.
